# Measured values published in patent publication US9914731B2, “Pyrazolo[1,5-a]pyridine derivatives and methods of their use” (Ignyta, Inc., priority 2013, dated 2018).
# Protein sequences, listed by entry. Tags and fused reporters are not part of them. Residues count along the entry.
# UniProt P30530, 26-894: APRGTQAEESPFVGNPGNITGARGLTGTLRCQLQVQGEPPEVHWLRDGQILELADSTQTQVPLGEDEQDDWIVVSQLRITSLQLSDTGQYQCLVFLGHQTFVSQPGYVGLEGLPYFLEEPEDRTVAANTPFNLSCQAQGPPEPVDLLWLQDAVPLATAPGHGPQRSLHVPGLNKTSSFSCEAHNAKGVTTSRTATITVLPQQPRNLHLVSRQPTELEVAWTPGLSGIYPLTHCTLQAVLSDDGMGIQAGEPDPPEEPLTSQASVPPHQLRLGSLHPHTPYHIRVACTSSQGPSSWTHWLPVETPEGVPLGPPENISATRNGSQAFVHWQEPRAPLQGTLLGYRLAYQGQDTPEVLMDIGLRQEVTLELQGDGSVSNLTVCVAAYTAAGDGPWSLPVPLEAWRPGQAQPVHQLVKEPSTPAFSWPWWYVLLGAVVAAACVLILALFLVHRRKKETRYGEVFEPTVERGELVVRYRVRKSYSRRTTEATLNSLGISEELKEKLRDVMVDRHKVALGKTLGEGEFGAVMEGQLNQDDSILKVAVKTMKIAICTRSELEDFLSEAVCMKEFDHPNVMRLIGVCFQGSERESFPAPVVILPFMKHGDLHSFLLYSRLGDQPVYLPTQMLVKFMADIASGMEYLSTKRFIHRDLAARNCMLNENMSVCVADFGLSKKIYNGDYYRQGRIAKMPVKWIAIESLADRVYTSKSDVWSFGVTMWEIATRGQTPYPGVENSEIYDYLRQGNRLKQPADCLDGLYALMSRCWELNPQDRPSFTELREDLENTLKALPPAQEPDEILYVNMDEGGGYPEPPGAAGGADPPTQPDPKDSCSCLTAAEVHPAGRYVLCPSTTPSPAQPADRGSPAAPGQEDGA
# Molecular target: recombinant human baculovirus-expressed AXL (Homo sapiens (Human), UniProt P30530)
# Experiment: AXL kinase assay (HTRF KinEASE)
# Format: biochemical
# Conditions: average of two or more determinations
structure (smiles),measurement,value
"CCOc1ccn(-c2ccc(F)cc2)c(=O)c1C(=O)Nc1ccc(Oc2cc(-c3cn(C)cn3)cn3nccc23)c(F)c1 [Example 112, 4-Ethoxy-1-(4-fluoro-phenyl)-2-oxo-1,2-dihydro-pyridine-3-carboxylic acid {3-fluoro-4-[6-(1-methyl-1H-imidazol-4-yl)-pyrazolo[1,5-a]pyridin-4-yloxy]-phenyl}-amide]",IC50,< 10 nM
